Laboratory results as given in US20140044709A1, “TREATMENT OF HER2-POSITIVE CANCER WITH PACLITAXEL AND TRASTUZUMAB-MCC-DM1” (priority 2010, published 2014).

How the values were obtained:
[1] = TDM4652g
[2] = system: patients with HER2-positive MBC; details: for maximum tolerated dose (MTD): IV
[3] = system: patients with HER2-positive MBC; details: 3.6 mg/kg every 3 weeks
[4] = 2.9 mg/kg weekly, 3 patients treated
[5] = 3.6 mg/kg every 3 weeks, 15 patients

## T-DM1
[1]
  PK of T-DM1 in the presence of paclitaxel: comparable with historical phase I data
[2]; [4]
  patients unable to receive Day 8 dosing because of Grade 3 thrombocytopenia: 2 patients
  patients with DLT (Grade 3-4 thrombocytopenia that prevented retreatment): 2 patients
[2]; [5]
  DLTs: no DLTs were observed
  Grade 4 toxicity: No Grade 4 toxicity
[2]; 4.8 mg/kg every 3 weeks, 3 patients treated
  patients with DLT (Grade 3-4 thrombocytopenia that prevented retreatment): 2 patients
[2]; both schedules
  clinically significant bleeding events: No clinically significant bleeding events
  serious adverse events considered possibly related to study drug (pulmonary hypertension): One
  toxicity, character: mild, reversible, and noncumulative
[2]; either schedule
  Grade ≧2 adverse events at the MTD: infrequent and manageable
  incidence of the most common Grade ≧2 adverse events (thrombocytopenia, nausea (weekly schedule), fatigue, headaches): > 25%
[2]; every 3 weeks
  dose recommended for the Phase II study: 3.6 mg/kg
[2]; every-3-week schedule
  maximum tolerated dose (MTD): 3.6 mg/kg
[2]; preliminary safety data
  dose-limiting cardiotoxicity: No dose-limiting cardiotoxicity
[2]; weekly and every-3-week schedules
  tolerability of treatment: well tolerated
[2]; weekly schedule
  maximum tolerated dose (MTD): 2.4 mg/kg
[3]; 112 patients enrolled
  patients with Grade 3-4 adverse events: 40 patients
[3]; of 112 patients
  patients requiring dose reduction: 3 patients

Read-outs that look alike come from different tables or passages of the source.
